Amino acid sequences for entries named in this document (tags omitted).
ATP-dependent Clp protease proteolytic subunit (Bacillus subtilis (strain 168)), P80244, UniProt P80244, whole entry, looked up: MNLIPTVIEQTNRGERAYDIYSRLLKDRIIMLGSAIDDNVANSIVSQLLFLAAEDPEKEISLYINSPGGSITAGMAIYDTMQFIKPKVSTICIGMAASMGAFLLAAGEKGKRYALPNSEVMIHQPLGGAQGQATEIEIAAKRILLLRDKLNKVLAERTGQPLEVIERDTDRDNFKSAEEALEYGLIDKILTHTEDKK

# Screening results as filed in PubChem.
# The list is not random: actives were taken first. Their share in the collection is about 2.4%.
# ClpP mod: qHTS Assay for Activators of ClpP; ATP-dependent Clp protease proteolytic subunit (Bacillus subtilis (strain 168)), P80244; purified B. subtilis ClpP, FRET peptide cleavage, 20 min; Potency, µM (top dose mostly 57.5 µM), inactives show top-dose activity change, negative = active; 1.9% of 340,000 active; active = well fitted falling curve with a large enough effect; inconclusive = small, poorly fitted or top-dose-only effect; inactive = no such curve, though single readings can be large or run the other way; also: the source files actives as falling curves though it sought activators and does not explain the sign; nearly all actives have a fitted effect of over 65% in size
#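 ClpP 10 microg/mL final, pH 8 Tris/KCl buffer with BSA, glycerol, Tween-20; compound pinned in; FRET-FV substrate; RT 20 min; Ex320/Em430; ΔFRET vs ADEP 5.8 microM, DMSO, no enzyme.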
# Rango-impB inh: inhibitors of Rango-importin beta complex formation; Q14974; Rango CFP/YFP FRET sensor + importin beta, 45 min; Potency, µM (top dose mostly 92.2 µM), for inactives: at the highest dose inhibition of complex formation; 0.031% of 340,000 active; calls by dose curve;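 also: 0% = DMSO wells and 100% = buffer wells lacking importin beta; nearly all actives have a fitted effect of over 15% in size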
#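 FRET biosensor (snurportin 1 IBB flanked by EYFP and cerulean), 50 nM, with compound 5 min, then 0.125 microM importin beta in PBS, 1 mM DTT, 0.02% Tween-20, 0.1% BSA. CFP/YFP ratio read after 45 min at room temperature; pre-read flags interference.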
# TDP1 block: blocks human tyrosyl-DNA phosphodiesterase 1; AID 485290; 0.28% of 350,000 active; Q9NUW8; Potency, µM (doses to about 130 µM), inactives show at the top dose activity change, negative = inhibition, usual class: inhibitors; recombinant TDP1, AlphaScreen DNA substrate cleavage; also: % is scaled to controls: 0 for no effect and ±100 for the full control effect; nearly all actives have a fitted effect of over 40% in size
#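 Compounds were preincubated with Tdp1 (1 nM final) for 15 min at room temperature before substrate (15 nM final) started a 5 min reaction; beads (10 ug/ml final) were then added for 10 min before AlphaScreen detection.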
# PTAP TSG101 blk: blocks PTAP/TSG101 interaction to inhibit HIV-1 budding; Potency, µM (highest dose often 115 µM), for the others: at the highest dose activity change, negative = inhibition, usual class: inhibitors; AID 493005; Fluorescence polarization, FITC-PTAP peptide / Tsg101 binding; Q99816; 340,000 tested, under 10 active; active = well fitted inhibition curve with a large enough effect in the main read-out, with a control signal flat, not every such curve was filed as active; inconclusive = small, poorly fitted or top-dose-only effect, or effect the other way, or a change in a side signal; inactive = no such curve, though single readings can be large or run the other way; also: % of control where 0% means no effect
#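 Tsg101 binding domain (10 uM final) was mixed with compound and a FITC-labeled PTAP peptide (50 nM final) in HEPES pH 7.5 buffer with NaCl, Tween 20, EDTA and TCEP; fluorescence polarization was read after 20 min at r.t.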
# Rango release inh: prevents RanGTP from dissociating the Rango-importin beta complex; O95149+P62826; Biochemical FRET Rango-importin beta, RanGTP-induced dissociation; Potency, µM (highest dose often 46.1 µM), for inactives: at the highest dose activity change, negative = inhibition; 0.071% of 340,000 active; AID 540253; calls by dose curve; also: % of control where 0% means no effect; nearly all actives have a fitted effect of over 45% in size
#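 Compounds sat 5 min at room temperature with 0.1 uM Rango biosensor plus 0.25 uM importin beta, then FRET pre-read. RanGTP-RCC1 (0.6 uM Ran, 2mM GTP, 0.2 uM RCC1) added for 45 min, and the CFP/YFP post-read measured blocked complex dissociation.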
# ALOX12 inh: inhibitors of human 12S-lipoxygenase ALOX12; P18054; purified 12hLO, xylenol orange hydroperoxide absorbance; Potency, µM (highest dose often 108 µM), without a hit: at the top dose activity change, negative = inhibition, hits mostly inhibitors; 1.1% of 580,000 active; also: % is scaled to controls: 0 for no effect and ±100 for the full control effect
#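 Hydroperoxide product was detected by ferrous iron/xylenol orange as the 573 to 405 nm absorbance ratio. Arachidonic acid at 40 uM (final) was turned over for 30 min at room temperature by 150 nM human 12hLO, pH 7.0 Hepes buffer, after 15 min compound preincubation.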
# * hit, by the source's call; i = inactive; u = inconclusive; x = no result given; ! = not active in a repeat; [ ] = another dose, or the depositor's remark. Unless noted, calls follow the shape of the dose curve; as a rule, active = well fitted curve in the direction sought with a large enough effect; inconclusive = small, poorly fitted or top-dose-only effect, or another doubt; inactive = no such curve, though single readings can be large; an effect the other way counts as inactive or inconclusive. Potency is read from the fitted curve at half-maximal effect.
structure | ClpP mod | Rango-impB inh | TDP1 block | PTAP TSG101 blk | Rango release inh | ALOX12 inh
CC(=C/C(=O)O)/C=C/c1ccc(Cl)o1 | 2% | 0% | 25µM* | -4% | -7% | u
N#CCSc1n[nH]c2nc3c(c(=O)n12)C1(CCCC1)Cc1ccccc1-3 | 16µM* | u | 6% | -3% | 3% | i
CCCn1c(SCC#N)nc2c(c1=O)C1(CCCC1)Cc1ccccc1-2 | -18% | -1% | 6% | -3% | -3% | -22%
CC(C)COc1ccc(-c2nnc(-c3ccncc3)o2)cc1 | 32µM* | 0% | 4% | -4% | u | -3%
CC(C)(C)NC(=O)c1cccc(NC(=O)Cc2cccs2)c1 | 35µM* | -4% | -1% | 1% | 28% | -11%
Cc1cccc(NC(=O)c2cccc(NC(=O)Cc3cccs3)c2)c1 | x | 3% | 0% | -13% | 0% | -7%
COc1ccc(NC(=O)CCS(=O)(=O)c2ccc(Br)s2)cc1 | x | 6% | x | 1% | 6% | -28%
CCOC(=O)c1ccc(NC(=O)CCS(=O)(=O)c2ccc(Br)s2)cc1 | 32µM* | -1% | 7% | -7% | -2% | 12%
COc1ccc(NC(=O)CSc2ccc(NC(C)=O)cc2)cc1S(=O)(=O)N1CCCCC1 | -1% | -4% | 3% | 0% | 5% | 6%
COc1ccc(NC(=O)CSc2ccccc2)cc1S(=O)(=O)N1CCCCC1 | 1% | 23µM* | 6% | -10% | 0% | 5%
CCOc1ccc(N2CC(C(=O)Nc3ccc(OC)c(S(=O)(=O)N4CCCCC4)c3)CC2=O)cc1 (stereo not drawn) | 28µM* | 0% | 4% | -2% | -4% | -11%
O=C(O)c1ccc(N2C(=O)c3cccc4c(C(=O)O)ccc(c34)C2=O)cc1 | x | 2% | 2.8µM* | -5% | 16% | -29%
N#Cc1c(SCCN2CCCCC2)nc(N2CCOCC2)c2c1CCCC2 | x | x | x | x | x | -3%
CCN(CC)c1nc(N2CCOCC2)c(C#N)c2c1CN(C)CC2 | -11% | u | 6% | -1% | u | 7%
CCN1CCc2c(C#N)c(N3CCCCC3)nc(N3CCOCC3)c2C1 | 8.9µM* | u | 2% | -3% | u | 0%
N#Cc1c(N2CCOCC2)nc(N2CCCCC2)c2c1CCN(C1CCCCC1)C2 | -12% | u | 4% | -5% | 23µM* | x
CC(C)c1nc(N2CCOCC2)c(C#N)c2c1CCCC2 | 32µM* | 2% | -4% | -3% | -22% | -11%
CCc1ccc(NC(=O)C2CCN(C(=O)c3nnn4c3COC(c3ccc(OC)cc3)C4)CC2)cc1 (stereo not drawn) | x | x | x | x | x | -4%
COc1ccc(CC(=O)N2N=C(c3cccc(Br)c3)CC2(O)C(F)(F)F)cc1 (stereo not drawn) | x | x | x | x | x | 14µM*
O=C1CCC[C@H]2[C@@H](Cc3ccccc3)[C@@H](NCc3cccs3)CC[C@]23CCCN13 | x | x | x | x | x | -5%
CCOC(=O)CCc1c(C)c2ccc(OCC(=O)C(C)(C)C)c(C)c2oc1=O | x | x | x | x | x | 0%
CCOC(=O)CCc1c(C)c2ccc(OCC)c(C)c2oc1=O | 32µM* | -4% | -5% | 0% | 1% | 12%
COc1ccc2c(C)c(Cc3ccccc3)c(=O)oc2c1OC | 4% | -4% | -2% | -3% | 2% | -7%
CCOC(=O)CCc1c(C)c2ccc(OCC(=O)N3CCOCC3)c(C)c2oc1=O | 10µM* | 0% | 3% | -4% | -13% | 1%
CCOC(=O)COc1ccc2c3c(c(=O)oc2c1C)CCC3 | 13µM* | 7% | -2% | -6% | 14% | 0%

# Continued.
structure | ClpP mod | Rango-impB inh | TDP1 block | PTAP TSG101 blk | Rango release inh | ALOX12 inh
CCCCc1c(C)c2ccc(OC)c(/C(C)=N\O)c2oc1=O | 8.9µM* | 0% | 4% | -4% | 8% | -7%
Cc1oc(-c2ccccc2)nc1C(=O)NC(C)c1ccc(C(F)(F)F)cc1 (stereo not drawn) | x | x | x | x | x | 30%
CC(=O)Nc1cccc(NC(=O)C2CCN(c3nc4ccccc4o3)CC2)c1 | x | x | x | x | x | 3%
CCNc1ncc(C(=O)N2C[C@@H](NS(C)(=O)=O)[C@H](C(C)C)C2)cn1 | x | x | x | x | x | 15%
O=C(NCc1ccc(F)cc1)c1ccc(S(=O)(=O)Nc2cccc(C(F)(F)F)c2)cc1 | 14µM* | 1% | 3% | 0% | -5% | u
COc1ccc(C2NCCc3c2[nH]c2ccccc32)cc1CSc1nc2ccccc2s1 (stereo not drawn) | -4% | 0% | 5% | -4% | -27% | 32µM*
COc1ccc(C(C)O)cc1CSc1nc2ccccc2s1 (stereo not drawn) | x | x | x | x | x | 2%
O=C(CNC(=O)c1cc2c(n(-c3ccccc3)c1=O)CCCC2=O)c1ccccc1 | 28µM* | 0% | 4% | -3% | 15% | 234%
CC1(C)CC(=O)c2cc(C(=O)NCc3ccco3)c(=O)n(-c3ccccc3)c2C1 | 28µM* | -3% | -10% | -4% | -2% | 0%
CCCN1C(=O)CCc2cc(NC(=O)NCCCOC)ccc21 | x | x | x | x | x | 21%
Cc1ccc(S(=O)(=O)NNc2nc3ccccc3nc2C(F)(F)F)cc1 | -1% | 0% | 10% | -5% | 1% | u
Cc1ccc(S(=O)(=O)NNc2c3ccccc3nc3ccc(Cl)cc23)cc1 | 4% | x | x | x | x | 25µM*
COc1ccc(-c2ccc(=O)n(CC(=O)N3CCc4ccccc4C3)n2)cc1OC | x | x | x | x | x | 24%
Cc1coc(C)c1C(=O)CC1(O)C(=O)N(CCc2ccccc2)c2ccccc21 (stereo not drawn) | -3% | -5% | 2% | -4% | -5% | 40µM*
CCN1C(=O)C(O)(CC(=O)c2c(C)coc2C)c2ccccc21 (stereo not drawn) | x | 0% | x | 0% | 1% | 6%
C[C@H](NC[C@H](O)CP(=O)(O)Cc1ccccc1)c1ccc(Cl)c(Cl)c1 | x | x | 5% | x | x | 20µM*!
NC(=O)c1c(C(F)(F)F)cc(-c2ccccc2)nc1NCCO | 22µM* | -1% | 5% | -9% | -12% | 0%
O=C(O)c1ccccc1-c1ccc(C=c2sc3nc4cc(Br)cnc4n3c2=O)o1 | -13% | x | x | x | x | 7.9µM*
COCCN1C[C@H]2CN(C(=O)c3ccno3)CCN2C1=O | x | x | x | x | x | 67%[176 µM]
CCCCCC(=O)N1CCN(CCN=CC2=C(O)CC(c3cccs3)CC2=O)CC1 (stereo not drawn) | 32µM*! | -2% | 1% | -7% | 2% | 5%

# Entries of single compounds, looked up by structure:
# CCCN1C(=O)CCc2cc(NC(=O)NCCCOC)ccc21 is entered as ClpP mod = x; Rango-impB inh = x; TDP1 block = x; PTAP TSG101 blk = x; Rango release inh = x; ALOX12 inh = 21%
# CC1(C)CC(=O)c2cc(C(=O)NCc3ccco3)c(=O)n(-c3ccccc3)c2C1 is entered as ClpP mod = 28µM*; Rango-impB inh = -3%; TDP1 block = -10%; PTAP TSG101 blk = -4%; Rango release inh = -2%; ALOX12 inh = 0%
# COc1ccc(C2NCCc3c2[nH]c2ccccc32)cc1CSc1nc2ccccc2s1 (stereo not drawn) is entered as ClpP mod = -4%; Rango-impB inh = 0%; TDP1 block = 5%; PTAP TSG101 blk = -4%; Rango release inh = -27%; ALOX12 inh = 32µM*
